Earlier results as cited in article PMC6237158, “HPLC–UV assay for the evaluation of inhibitors of plasma amine oxidase using crude bovine plasma” (Journal of Enzyme Inhibition and Medicinal Chemistry, 2018).

System: MAO B
Settings: 0.1 µM; pre-incubation conditions; cited from earlier work

## C#CCN(C)[C@H](C)Cc1ccccc1 [selegiline]
  reduction of MAO B activity: more than 95%
